Measured values as given in patent US20070015231A1, “Assay for protein tyrosine phosphatases” (CEPTYR, Inc., priority 2000, published 2007).
Positions count from the first letter of the chain named.

What was measured:
[1] = biological target: fluorescein-labeled p56lck phosphopeptide A-T-E-G-Q-pY-Q-P-Q-P; experiment: fluorescence polarization, mutant PTP titrated against fluorescein-labeled peptide in solution
PTP1B(C215S) = biological target: T1, PTP1B(C215S) (Homo sapiens, UniProt P18031, C215S); experiment: PTP-1B (CS) binding assay: fluorescence polarization binding of fluorescein-labeled phosphotyrosyl peptides
T1 construct: PTP1B proteins (wild type and mutant forms) comprising amino acids 1-321 were expressed in E. coli; made in house; host or cells: E. coli
T1 sequence (P18031 1-321 C215S): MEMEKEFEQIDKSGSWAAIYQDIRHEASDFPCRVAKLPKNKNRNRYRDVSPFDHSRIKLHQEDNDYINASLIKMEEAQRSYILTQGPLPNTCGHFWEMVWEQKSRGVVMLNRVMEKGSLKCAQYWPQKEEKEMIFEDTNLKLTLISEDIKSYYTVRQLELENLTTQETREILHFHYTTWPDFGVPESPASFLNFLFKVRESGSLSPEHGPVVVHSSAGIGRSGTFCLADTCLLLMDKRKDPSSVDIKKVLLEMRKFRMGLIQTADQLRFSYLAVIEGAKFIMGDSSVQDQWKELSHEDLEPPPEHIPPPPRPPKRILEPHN
Method: (§1) Two assay parameters were measured: (1) the dynamic range of the signal (i.e. the difference between polarization values of the bound and the unbound fluorescent substrate) and (2) the midpoint of the transition between bound and unbound that represents the apparent Kd (i.e. affinity) of each binding mutant for each peptide.
(§2) Assays were set up at room temperature in black polypropylene 96 well microtiter plates (Polyfiltronics, Whatman, U. K.) by the sequential addition of 40 μl of Assay Buffer, 40 μl of diluted binding protein and 40 μl of 0.3 nM fluorescein-labeled substrate peptide. After 15 min plates were read in a Criterion Analyst™ (LJL BioSystems, Inc., Sunnyvale, Calif.) in fluorescence polarization detection mode using the parameters listed as follows:
(§3) To obtain values for background fluorescence, assays were set up as above except the fluorescein-labeled substrate was replaced with Assay Buffer. To determine the fluorescence polarization values for the unbound substrate peptide, assays were set up as above except that the 40 μl of diluted binding protein was replaced with Assay Buffer.

PTP1B(D181A) = biological target: T2, PTP1B(D181A) (Homo sapiens, UniProt P18031, D181A); experiment: PTP-1B (DA) binding assay: fluorescence polarization binding of fluorescein-labeled phosphotyrosyl peptides
T2 construct: PTP1B proteins (wild type and mutant forms) comprising amino acids 1-321 were expressed in E. coli; made in house; host or cells: E. coli
T2 sequence (P18031 1-321 D181A): T1 sequence (P18031 1-321 C215S) with D181A, S215C
Method: as §1, §2, §3

Substance: PTP1B(C215S), amino acids 1-321 (from UniProt P18031 1-321) (enzyme)
- Peak mP [1]: 266 mP

Substance: A-T-E-G-Q-pY-Q-P-Q-P (ATEGQYQPQP; fluorescein label; phosphotyrosine; Substrate for PTBs synthesized from residues 500-509 of p56lck, the src-like lymphocyte specific protein tyrosine kinase that is a physiological substrate for CD45.) [F-lck-P]
- maximum polarization value for the fully bound peptide substrate (PTP1B(C215S); CS binding mutant): 266 mP
- Peak mP (PTP1B(C215S); Table 1, 0.1 nM-range fluorescein-labeled peptide titrated with CS mutant): 266.4 mP
- maximum polarization value for bound peptide (PTP1B(D181A); DA binding mutant): 277 mP
- Peak Mp (PTP1B(D181A); Table 2, titrated with DA mutant): 276.9 Mp

Substance: PTP1B(D181A), amino acids 1-321 (from UniProt P18031 1-321) (enzyme)
- Peak Mp [1]: 277 mP
